Source: ChEMBL document CHEMBL4825708, “GDC-9545 (Giredestrant): A Potent and Orally Bioavailable Selective Estrogen Receptor Antagonist and Degrader with an Exceptional Preclinical Profile for ER+ Breast Cancer” (J Med Chem, 2021)

Chains of the proteins cited; added tags and fusions are not shown.
UniProt P03372, whole entry: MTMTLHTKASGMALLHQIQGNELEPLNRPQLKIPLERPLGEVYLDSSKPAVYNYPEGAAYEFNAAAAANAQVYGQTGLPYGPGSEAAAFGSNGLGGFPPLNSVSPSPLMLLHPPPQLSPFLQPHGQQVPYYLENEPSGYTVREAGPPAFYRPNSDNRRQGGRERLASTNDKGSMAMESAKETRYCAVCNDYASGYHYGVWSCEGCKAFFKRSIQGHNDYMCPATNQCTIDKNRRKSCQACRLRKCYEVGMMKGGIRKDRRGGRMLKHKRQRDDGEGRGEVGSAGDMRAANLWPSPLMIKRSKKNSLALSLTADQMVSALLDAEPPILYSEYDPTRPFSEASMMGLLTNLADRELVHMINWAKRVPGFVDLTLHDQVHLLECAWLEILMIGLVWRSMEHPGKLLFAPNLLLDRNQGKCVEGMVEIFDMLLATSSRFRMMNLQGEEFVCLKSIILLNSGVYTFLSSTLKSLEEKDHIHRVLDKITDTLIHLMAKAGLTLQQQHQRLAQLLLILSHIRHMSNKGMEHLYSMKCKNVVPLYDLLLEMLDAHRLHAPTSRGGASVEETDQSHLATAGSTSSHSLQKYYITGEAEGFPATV

Tests used:
Rattus norvegicus [1] = experiment: (§1) In vivo inverse agonist activity at estrogen receptor in CRL:CD(SD) rat assessed as appearance of tall columnar phenotype of epithelial cells in endometrium 10 mg/kg, po administered for 4 days and measured at 4 hr post last dose on day 4 by hematoxylin and eosin staining based assay relative to control; format: functional, organism-based; conditions: time 4.0 day
HCI-013 [2] = experiment: Antitumor activity against patient-derived human HCI-013 cells harboring ESR1 Y537S mutant xenografted in NOD SCID mouse assessed as tumor regression at 100 mg/kg, po administered once daily for 28 to 29 days by calipers method; format: functional, organism-based; conditions: time 28-29 day
HCI-013 [3] = experiment: Antitumor activity against patient-derived human HCI-013 cells harboring ESR1 Y537S mutant xenografted in NOD SCID mouse assessed as reduction in tumor growth at 100 mg/kg, po administered once daily for 28 days by calipers method; format: functional, organism-based; conditions: time 28.0 day
MCF7 = experiment: Antitumor activity against human MCF7 cells xenografted in nude mouse assessed as reduction in tumor growth at 50 mg/kg, sc administered once daily at day 1,3 and 8 followed by 25 mg/kg dosed twice weekly for 2 to 4 weeks cotreated with palbociclib and measured after 28 days by calipers method; format: functional, organism-based
HCI-013 [4] = experiment: Antitumor activity against patient-derived human HCI-013 cells harboring ESR1 Y537S mutant xenografted in NOD SCID mouse assessed as reduction in tumor growth at 50 mg/kg, sc administered once daily at day 1,3 and 8 followed by 25 mg/kg dosed twice weekly for 2 to 4 weeks and measured after 28 days by calipers method; format: functional, organism-based
Mus musculus = experiment: Reduction in ERalpha level in tumor of nude mouse xenografted with human HCI-013 cells harboring ESR1Y537S mutant at 1 to 10 mg/kg, po administered once daily for 3 days by calipers method; format: functional, organism-based; conditions: dose 1-10 mg/kg, time 3.0 day
Estrogen receptor [5] = target: T1, Estrogen receptor (Homo sapiens, UniProt P03372); experiment: Induction of estrogen receptor degradation in human MDA-MB-134-VI cells at 0.1 to 1000 nM incubated for 24 hrs by Western blot analysis; format: cell-based; conditions: dose 0.1-1000 nM
Estrogen receptor [6] = target: T1, Estrogen receptor; experiment: Induction of estrogen receptor degradation in human MDA-MB-330 cells at 0.1 to 1000 nM incubated for 24 hrs by Western blot analysis; format: cell-based; conditions: dose 0.1-1000 nM
Estrogen receptor [7] = target: T1, Estrogen receptor; experiment: Induction of estrogen receptor degradation in human T-47D cells at 0.1 to 1000 nM incubated for 24 hrs by Western blot analysis; format: cell-based; conditions: T47D, dose 0.1-1000 nM
Rattus norvegicus [8] = experiment: In vivo inverse agonist activity at estrogen receptor in CRL:CD(SD) rat assessed as decrease in uterine wet weight to body weight ratio at 0.1 to 10 mg/kg, po administered for 4 days and measured at 4 hr post last dose on day 4 relative to control; format: functional, organism-based; conditions: dose 0.1-10 mg/kg, time 4.0 day
Estrogen receptor [9] = target: T1, Estrogen receptor; experiment: Induction of estrogen receptor degradation in human CAMA1 cells at 0.1 to 1000 nM incubated for 24 hrs by Western blot analysis; format: cell-based; conditions: CAMA-1, dose 0.1-1000 nM
Rattus norvegicus [10] = experiment: as §1, with “endometrium at 0.1 to” for “endometrium”; format: functional, organism-based; conditions: dose 0.1-10 mg/kg, time 4.0 day
Rattus norvegicus [11] = experiment: In vivo inverse agonist activity at estrogen receptor in CRL:CD(SD) rat assessed as decrease in uterine wet weight to body weight ratio at 10 mg/kg, po administered for 4 days and measured at 4 hr post last dose on day 4 relative to control; format: functional, organism-based; conditions: time 4.0 day
Estrogen receptor [12] = target: T1, Estrogen receptor; experiment: Induction of estrogen receptor degradation in human EFM19 cells at 0.1 to 1000 nM incubated for 24 hrs by Western blot analysis; format: cell-based; conditions: EFM-19, dose 0.1-1000 nM
HCI-013 [13] = experiment: Antitumor activity against patient-derived human HCI-013 cells harboring ESR1 Y537S mutant xenografted in NOD SCID mouse assessed as reduction in tumor growth at 0.1 to 1 mg/kg, po administered once daily for 29 days by calipers method; format: functional, organism-based; conditions: dose 0.1-1 mg/kg, time 29.0 day

Measured: Activity

CC1=C(c2cccc(O)c2)[C@H](c2ccc(OCCN3CC(CF)C3)cc2)Oc2ccc(O)cc21
active: Rattus norvegicus [1] | HCI-013 [2]

CC/C(=C(/c1ccc(/C=C/C(=O)O)cc1)c1ccc2[nH]ncc2c1)c1ccc(F)cc1Cl [BRILANESTRANT]
active: HCI-013 [3]

C[C@]12CC[C@@H]3c4ccc(O)cc4C[C@@H](CCCCCCCCC[S+]([O-])CCCC(F)(F)C(F)(F)F)[C@H]3[C@@H]1CC[C@@H]2O (stereo not given in full) [FULVESTRANT]
active: MCF7 | HCI-013 [4]

C[C@@H]1Cc2c([nH]c3ccccc23)[C@@H](c2c(F)cc(NC3CN(CCCF)C3)cc2F)N1CC(F)(F)CO [GIREDESTRANT]
active: Mus musculus | Estrogen receptor [5] | Estrogen receptor [6] | Estrogen receptor [7] | Rattus norvegicus [8] | Estrogen receptor [9] | Rattus norvegicus [10] | Rattus norvegicus [11] | Estrogen receptor [12] | HCI-013 [13]

Active and inactive are the calls of the source.
